# Reference: article PMC5462475, “A conformational switch high-throughput screening assay and allosteric inhibition of the flavivirus NS2B-NS3 protease” (PLoS Pathogens, 2017)
# Values joined by “and” are separate entries in the source; they are usually repeats but may differ in a detail not shown here. Equal entries are not always repeated.
# Assays:
# [1] = target: DENV2 NS2B-NS3 protease (Dengue virus type 2, UniProt P14340); assay: DENV2 NS2B-NS3 protease inhibition assay (linked protease, fluorescent peptide substrate); details: for reduction of the activity of DENV2 protease: compound at 100 μM; for Hill Coefficient of DENV2 protease inhibition curve: linked DENV2 NS2B-NS3 protease 150 nM, Abz substrate 100 μM
# [2] = target: linked DENV2 NS2B-NS3 (Dengue virus type 2, UniProt P14340); assay: Protein thermal shift assay (PTSA), linked WT DENV2 NS2B-NS3; details: Fig 10D
Structure (SMILES),IC50 [1] [µM],reduction of the activity of DENV2 protease [1],Hill Coefficient of DENV2 protease inhibition curve [1],Tm (WT) [2] [°C],Hill Coefficient of DENV2 protease inhibition curve ([1]; listed as 135618)
Cn1ccc(=Nc2ccc(NC(=O)c3ccc(N=c4ccn(C)c5ccc([N+](=O)[O-])cc45)cc3)cc2)cc1 [NSC260594],11.4,more than 80%,5.38 and 5.4,–,–
O=C1C=CC(=NNc2ccc([N+](=O)[O-])cc2Cl)C=C1C(=O)Nc1cccc(Cl)c1 [NSC135618],–,more than 80%,0.73,43.09,0.7
O=C(Nc1ccc(Nc2ccncc2)cc1)c1ccc(Nc2ccnc3ccc([N+](=O)[O-])cc23)cc1 [NSC146771],4.8,more than 80%,2.03 and 2.0,–,–
